Like-named read-outs stand apart in the source and are kept apart here.
Assays:
[1] = tested on: mutant EGFRs with in-frame insertion mutations in exon 20; experiment: Cell-based inhibition of phosphorylation of mutant EGFRs with exon 20 insertions; settings: A763_Y764insFQEA, V769_D770insASV, D770_N771insG, D770_N771insSVD, H773_V774insNPH, H773_V774insPH
WT EGFR = WT EGFR (Homo sapiens, UniProt P00533); experiment: Cell-based inhibition of phosphorylation of WT EGFR; settings: cell-based assay
[2] = tested on: tumors expressing EGFR with exon 20 insertions (V769_D770insASV, D770_N771insSVD, H773_V774insNPH); experiment: In vivo antitumor efficacy, subcutaneous tumors expressing EGFR exon 20 insertions; settings: nude mouse and/or nude rat
[3] = tested on: phosphorylation of EGFR and its downstream effectors in human lung cancer xenografts harboring EGFR exon 20 insertions; experiment: Pharmacodynamic marker analysis in human lung cancer xenografts; settings: human lung cancer xenografts with EGFR ex20ins
[4] = tested on: tumors expressing EGFR with G719A+T790M mutations; experiment: In vivo antitumor efficacy, subcutaneous tumors expressing EGFR G719A+T790M; settings: nude mouse
[5] = tested on: NIH/3T3 EGFR H773_V774insNPH; experiment: NIH/3T3 EGFR H773_V774insNPH allograft, TAS6417 and/or CBDCA/pemetrexed; settings: for Tumor volume: mean
[6] = tested on: recurrent or metastatic NSCLC harboring EGFR ex20ins mutations; experiment: Phase 1/2a study, antitumor activity; settings: for Confirmed PR: RECIST v1.1; for Objective responses across dose levels: all doses tested
[7] = Phase 1/2a study, pharmacokinetics (plasma); settings: for AUCLST / AUCTAU / Cmax / T1/2: GM; for Tmax: median
[8] = tested on: advanced EGFR ex20ins mutant NSCLC after prior amivantamab; experiment: Study in patients who received prior amivantamab (January 2024), anti-tumor activity
[9] = Crossing of the normal rodent blood-barrier (preclinical studies)
[10] = tested on: EGFR mutants that harbor an exon 20 insertion mutation; settings: biochemical assay; cited from earlier work
[11] = tested on: mutant EGFRs with in-frame insertion mutations in exon 20; settings: genetically engineered cell lines / nonclinical studies, cited from earlier work
[12] = tested on: EGFRs harboring T790M and exon 18 or exon 21 mutations (G719A+T790M, L861Q+T790M); settings: cited from earlier work
[13] = tested on: tumors expressing EGFR with exon 20 insertions (V769_D770insASV, D770_N771insSVD, H773_V774insNPH); settings: cancer xenografts harboring EGFR ex20ins mutations; cited from earlier work
[14] = tested on: recurrent or metastatic NSCLC harboring EGFR ex20ins mutations; settings: after prior platinum-containing chemotherapy (JCO 2023); cited from earlier work
[15] = three patients with measurable target CNS lesions
[16] = multiple dose C1D15, 100 mg BID
[17] = multiple dose C1D15, 150 mg BID

By UniProt entry, the sequences of proteins in these tests, tags left out. Residues count along the entry.
UniProt P00533, 25-1210 limits assumed: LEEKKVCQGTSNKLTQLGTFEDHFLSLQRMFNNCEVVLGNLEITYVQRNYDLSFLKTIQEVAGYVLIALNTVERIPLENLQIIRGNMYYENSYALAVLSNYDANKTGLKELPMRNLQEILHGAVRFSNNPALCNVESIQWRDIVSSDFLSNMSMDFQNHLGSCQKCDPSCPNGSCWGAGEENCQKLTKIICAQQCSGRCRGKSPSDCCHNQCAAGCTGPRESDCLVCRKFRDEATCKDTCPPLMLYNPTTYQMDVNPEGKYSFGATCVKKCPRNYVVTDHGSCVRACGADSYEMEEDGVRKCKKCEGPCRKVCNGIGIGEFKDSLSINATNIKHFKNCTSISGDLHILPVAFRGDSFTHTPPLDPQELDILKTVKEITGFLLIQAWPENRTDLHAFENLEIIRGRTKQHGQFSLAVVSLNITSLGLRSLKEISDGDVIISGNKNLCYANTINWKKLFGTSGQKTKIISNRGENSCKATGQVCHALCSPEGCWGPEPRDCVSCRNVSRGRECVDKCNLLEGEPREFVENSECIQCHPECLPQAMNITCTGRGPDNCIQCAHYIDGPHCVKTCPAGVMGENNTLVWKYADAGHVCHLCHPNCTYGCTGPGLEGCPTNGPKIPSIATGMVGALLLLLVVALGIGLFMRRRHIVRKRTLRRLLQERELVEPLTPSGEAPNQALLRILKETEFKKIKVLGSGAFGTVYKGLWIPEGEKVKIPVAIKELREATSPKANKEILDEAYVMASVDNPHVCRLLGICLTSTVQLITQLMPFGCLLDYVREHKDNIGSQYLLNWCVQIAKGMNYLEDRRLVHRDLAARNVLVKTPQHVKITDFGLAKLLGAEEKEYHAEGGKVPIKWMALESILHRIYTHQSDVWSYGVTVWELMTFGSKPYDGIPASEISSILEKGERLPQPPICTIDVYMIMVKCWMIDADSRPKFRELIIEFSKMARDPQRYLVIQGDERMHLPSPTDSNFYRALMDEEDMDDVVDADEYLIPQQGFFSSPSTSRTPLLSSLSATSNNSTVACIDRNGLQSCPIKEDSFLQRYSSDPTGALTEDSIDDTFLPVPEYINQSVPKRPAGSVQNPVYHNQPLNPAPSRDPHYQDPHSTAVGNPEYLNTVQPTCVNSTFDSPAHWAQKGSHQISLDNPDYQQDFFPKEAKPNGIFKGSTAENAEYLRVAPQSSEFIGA

C=CC(=O)N[C@H]1C=C(C)c2c(-c3cnc4ccccc4c3)c3c(N)ncnc3n2C1
Inhibition of phosphorylation of mutant EGFRs [1]: intensive cellular potency
Inhibition of WT EGFR (WT EGFR): moderate inhibition
Tumor growth inhibition and regression [2]: striking tumor growth inhibition and tumor regression effects in a dose-dependent manner
Inhibition of phosphorylation of EGFR and downstream effectors in vivo [3]: potent and durable in vivo inhibitory effect
Body weight loss, fecal abnormalities, skin abnormalities [4]: not effected at a cost of body weight loss, fecal abnormalities, or skin abnormalities
Tumor growth inhibition ([4]; subcutaneous): significant tumor growth inhibition effects in a dose-dependent manner
Tumor volume ([5]; Day 0, TAS6417 50 mg/kg/day p.o.): 150.4 mm^3
Tumor volume ([5]; Day 0, TAS6417 100 mg/kg/day p.o.): 154.5 mm^3
Tumor volume ([5]; Day 8, TAS6417 50 mg/kg/day p.o.): 265.0 mm^3
Tumor volume ([5]; Day 8, TAS6417 100 mg/kg/day p.o.): 199.5 mm^3
Tumor volume after 8 days ([5]; alone or in combination with CBDCA/pemetrexed): dramatically smaller tumor volume after 8 days
mPFS ([6]; 65 mg BID or less, 95% CI, 5 to 13): 8 months
Best response PD ([6]; 100 mg BID (N=39)): 1 (2.6) No. (%)
Best response SD ([6]; 100 mg BID (N=39)): 22 (56.4) No. (%)
Confirmed PR ([6]; 100 mg BID (N=39)): 16 (41) No. (%)
mPFS ([6]; 100 mg BID, 95% CI, 5 to NC): 12 months
Response of CNS target lesion, second patient ([6]; 100 mg, after 1 year on treatment): stable disease both systemically and intracranially
Response of CNS target lesion, first patient ([6]; 100 mg, cycle 6, remained in PR at cycle 16): achieved both a systemic and intracranial response
Best response PD ([6]; 150 mg BID (N=11)): 1 (9.1) No. (%)
Best response SD ([6]; 150 mg BID (N=11)): 6 (54.5) No. (%)
Confirmed PR ([6]; 150 mg BID (N=11)): 4 (36.4) No. (%)
Response of CNS target lesion, third patient ([6]; 150 mg, cycle 3): progressed with new lesions in the CNS
mDOR ([6]; 12 patients at <65 mg BID): had not been reached
mDOR ([6]; 16 patients at 100 mg BID): had not been reached
mPFS ([6]; all dose levels, 95% CI, 6 to 12): 10 months
mDOR ([6]; all dose levels, 95% CI, 6 to NC): 10 months
Objective responses across dose levels [6]: Objective responses were observed across the range of dose levels tested
Objective responses across dose levels ([6]; listed as Compound 1): Objective responses (ORs) were observed across the full range of Compound 1 doses tested
ORR ([6]; far-loop insertions (n=9)): 22%
Tumor regression ([6]; heavily previously-treated patients): rapid and durable tumor regression
Response rate ([6]; helical region mutations (2 patients)): 0%
PRs across ex20ins mutations ([6]; in vivo): PRs were observed across a spectrum of diverse epidermal growth factor receptor exon 20 insertion mutations
ORR ([6]; near-loop exon 20 insertions (n=52)): 41.5%
Best response PD ([6]; overall (N=73)): 3 (4.1) No. (%)
Best response SD ([6]; overall (N=73)): 42 (57.5) No. (%)
Confirmed PR ([6]; overall (N=73)): 28 (38.4) No. (%)
Median time to response ([6]; range, 1.5-6.2): 1.5 months
PRs ([6]; three patients previously treated with another ex20ins-directed TKI): two
CNS progression as best response [6, 15]: one
Systemic and intracranial PR [6, 15]: one
Systemic and intracranial SD [6, 15]: one
Response rate ([6]; unreported mutation site group (10 patients)): 40%
Best response PD ([6]; ≤65 mg BID (N=23)): 1 (4.3) No. (%)
Best response SD ([6]; ≤65 mg BID (N=23)): 14 (60.9) No. (%)
Confirmed PR ([6]; ≤65 mg BID (N=23)): 8 (35) No. (%)
Dose dependence of Cmax and AUC ([7]; 30-150 mg BID): increased in a dose-related manner
Accumulation ([7]; after 14 days): No notable accumulation
Median time to Cmax (Tmax) ([7]; fasting, C1D1 or C1D15): 0.5 to 1.5 h
AUCLST ([7]; first dose C1D1, 30 mg BID): 4,030 ng·h/mL
AUCTAU ([7]; first dose C1D1, 30 mg BID): 5,538 ng·h/mL
Cmax ([7]; first dose C1D1, 30 mg BID): 969 ng/mL
T1/2 ([7]; first dose C1D1, 30 mg BID): 3.34 h
Tmax ([7]; first dose C1D1, 30 mg BID): 1.5 h
AUCLST ([7]; first dose C1D1, 45 mg BID): 10,151 ng·h/mL
Cmax ([7]; first dose C1D1, 45 mg BID): 2,697 Ng/mL
T1/2 ([7]; first dose C1D1, 45 mg BID): 4.18 h
Tmax ([7]; first dose C1D1, 45 mg BID): 1 h
AUCLST ([7]; first dose C1D1, 65 mg BID): 10,674 ng·h/mL
AUCTAU ([7]; first dose C1D1, 65 mg BID): 11,115 ng·h/mL
Cmax ([7]; first dose C1D1, 65 mg BID): 2,552 Ng/mL
T1/2 ([7]; first dose C1D1, 65 mg BID): 4.02 h
Tmax ([7]; first dose C1D1, 65 mg BID): 1 h
AUCLST ([7]; first dose C1D1, 100 mg BID): 12,036 ng·h/mL
AUCTAU ([7]; first dose C1D1, 100 mg BID): 13,674 ng·h/mL
Cmax ([7]; first dose C1D1, 100 mg BID): 3,330 Ng/mL
T1/2 ([7]; first dose C1D1, 100 mg BID): 3.67 h
Tmax ([7]; first dose C1D1, 100 mg BID): 0.5 h
AUCLST ([7]; first dose C1D1, 150 mg BID): 20,581 ng·h/mL
AUCTAU ([7]; first dose C1D1, 150 mg BID): 23,713 ng·h/mL
Cmax ([7]; first dose C1D1, 150 mg BID): 4,788 Ng/mL
T1/2 ([7]; first dose C1D1, 150 mg BID): 3.34 h
Tmax ([7]; first dose C1D1, 150 mg BID): 1 h
AUCLST ([7]; multiple dose C1D15, 30 mg BID): 5,280 ng.h/mL
AUCTAU ([7]; multiple dose C1D15, 30 mg BID): 6,476 ng.h/mL
Cmax ([7]; multiple dose C1D15, 30 mg BID): 1,364 Ng/mL
Tmax ([7]; multiple dose C1D15, 30 mg BID): 1 h
AUCLST ([7]; multiple dose C1D15, 45 mg BID): 11,053 ng.h/mL
AUCTAU ([7]; multiple dose C1D15, 45 mg BID): 12,894 ng.h/mL
Cmax ([7]; multiple dose C1D15, 45 mg BID): 3,089 Ng/mL
T1/2 ([7]; multiple dose C1D15, 45 mg BID): 4.29 h
Tmax ([7]; multiple dose C1D15, 45 mg BID): 1 h
AUCLST ([7]; multiple dose C1D15, 65 mg BID): 10,433 ng.h/mL
AUCTAU ([7]; multiple dose C1D15, 65 mg BID): 12,380 ng.h/mL
Cmax ([7]; multiple dose C1D15, 65 mg BID): 2,190 Ng/mL
T1/2 ([7]; multiple dose C1D15, 65 mg BID): 4.28 h
Tmax ([7]; multiple dose C1D15, 65 mg BID): 2 h
AUCLST [7, 16]: 13,861 ng.h/mL
AUCTAU [7, 16]: 15,672 ng.h/mL
Cmax [7, 16]: 3,827 Ng/mL
T1/2 [7, 16]: 4.24 h
Tmax [7, 16]: 0.5 h
AUCLST [7, 17]: 24,309 ng.h/mL
AUCTAU [7, 17]: 28,326 ng.h/mL
Cmax [7, 17]: 5,581 Ng/mL
T1/2 [7, 17]: 3.89 h
Tmax [7, 17]: 0.5 h
Elimination half-life ([7]; repeat BID dosing for 14 days): 3 to 4 h
Unconfirmed partial response (uPR) ([8]; 18 evaluable patients): 1 (5.6%)
Median progression-free survival ([8]; human, in vivo): not yet estimable
Efficacy vs patients that progressed after platinum-based chemotherapy ([8]; prior amivantamab): efficacy similar to that of patients that progressed after platinum-based chemotherapy
Crossing of normal rodent blood-barrier [9]: may not efficiently cross the normal rodent blood-barrier
Inhibition of in vitro phosphorylation activity [10]: inhibited the in vitro phosphorylation activity
Inhibition of intracellular phosphorylation of mutant EGFRs (ex20ins) ([11]; listed as CLN-081/TAS6417): potent inhibitor of ex20ins mutations
Inhibition of intracellular phosphorylation of mutant EGFRs (ex20ins) ([11]; listed as zipalertinib): potently inhibited intracellular phosphorylation of mutant EGFRs
Inhibition of EGFRs with T790M + exon 18 or 21 mutation [12]: intensive inhibition
Antitumor activity in vivo [13]: significant antitumor activity in vivo
Confirmed objective response rate (ORR) [14]: 41%

Reference: patent US20260382616A1, “TREATMENT METHODS FOR SUBJECTS WITH NON-SMALL CELL LUNG CANCER HAVING AN ABERRATION IN EGFR” (published 2026)
